For this assay, the target named is 5-hydroxytryptamine receptor 1B (Rattus norvegicus, UniProt P28564). Put plainly: Binding affinity against 5-hydroxytryptamine 1B receptor in rat striatal membranes using [3H]5-HT as radioligand. Format: cell membranes, Striatum, Membrane.

Chains of the proteins cited; added tags and fusions are not shown.
UniProt P28564, whole entry: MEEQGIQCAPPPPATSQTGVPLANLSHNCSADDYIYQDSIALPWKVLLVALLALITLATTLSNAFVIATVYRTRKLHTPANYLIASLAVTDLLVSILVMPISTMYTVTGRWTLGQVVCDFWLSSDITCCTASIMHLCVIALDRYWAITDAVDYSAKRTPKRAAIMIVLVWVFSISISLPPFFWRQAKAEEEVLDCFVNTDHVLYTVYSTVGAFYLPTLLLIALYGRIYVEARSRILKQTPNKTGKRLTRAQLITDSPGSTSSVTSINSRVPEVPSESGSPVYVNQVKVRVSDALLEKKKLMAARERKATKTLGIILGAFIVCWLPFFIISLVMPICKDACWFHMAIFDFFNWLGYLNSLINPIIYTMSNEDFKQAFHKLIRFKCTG

Experimental findings from ChEMBL document CHEMBL1127118 (Bioorg Med Chem Lett, 1993) are described below.

Broadly, the Ki is a dissociation constant, usually derived from enzyme kinetics or from competition with a known ligand. Low values mean higher affinity, high ones lower affinity. `CCCN(CCC)C1CCc2cccc(O)c2C1` (stereo unspecified) [8-OH-DPAT]: the Ki was greater than 10 µM.
